## scFv variants of Ab-14 (heavy chain) against a SARS-CoV-2 spike peptide

Target: peptide PDVDLGDISGINAS, taken from heptad repeat 2 (HR2) of SARS-CoV-2 spike.

The variants keep the light chain, the linker and the frameworks of Ab-14 (scFv order VH, the linker GGGGSGGGGSGGGGS, VL).
VH: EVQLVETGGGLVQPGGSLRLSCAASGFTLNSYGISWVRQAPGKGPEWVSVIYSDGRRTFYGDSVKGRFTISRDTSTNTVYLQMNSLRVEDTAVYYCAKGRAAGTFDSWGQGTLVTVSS
VL: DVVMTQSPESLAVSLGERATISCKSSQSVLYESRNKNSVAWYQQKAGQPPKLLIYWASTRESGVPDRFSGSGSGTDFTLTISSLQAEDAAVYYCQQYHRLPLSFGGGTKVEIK

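Phage display of a naive human antibody library on the peptide gave the parent. The variants were designed computationally from a first round of random CDR variants and then made and measured. Several design methods are mixed in this list. The assay is AlphaSeq: two haploid yeast populations carry antibody and antigen on their surface. After mating in shaken culture at 30 °C for 16 h, diploids were selected and their barcode pairs sequenced. A regression on co-assayed BCL2-family reference pairs converts the normalised counts of each replicate to an apparent Kd. There are six technical replicates.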

The parent's heavy chain CDRs are GFTLNSYGIS, VIYSDGRRTFYGDSVK, GRAAGTFDS; each variant's own CDRs replace them letter for letter. Kd is apparent (estimated from mating counts) and averaged on the log scale over replicates with a signal. Smaller is tighter. Where no diploid with the target was found in any replicate, the entry reads "nd": below detection, most likely a poor binder, though not proof of it. A sequence measured in both rounds can read differently, since the two assays cover different ranges.

| # | apparent Kd | seen in | signal with controls | CDR-H1 | CDR-H2 | CDR-H3 |
|---|---|---|---|---|---|---|
| 1 | 44 nM | 4 of 6 | 0 of 18 | GFSLNSYGIS | VIYSDGRRTFYGDSVK | GWAAGTFDQ |
| 2 | 680 pM | 6 of 6 | 1 of 18 | GFDLNSYGIS | VIYSDGKRTFYGDDVK | GRTAGTFDS |
| 3 | 2.7 nM | 6 of 6 | 0 of 18 | GFSLNSYGIS | VIYSDGRRTFYADDVK | GRTAGTFDK |
| 4 | 680 pM | 6 of 6 | 0 of 18 | GFDLNSYGIS | VIYSDGMRTFYSDSVK | GRTAGTFDS |
| 5 | nd | 0 of 6 | 1 of 18 | GRTLNSYGIS | VIYSDGRRTEYGDSVK | GRAAGCFDS |
| 6 | 45 nM | 5 of 6 | 1 of 18 | GFELQEFGIS | VIYADGIRTNYSQNVK | GTLAGTFTL |
| 7 | 29 nM | 6 of 6 | 0 of 18 | GFDLNEYGIS | VIYADGRRTFYADSVK | GNQAGTFIM |
| 8 | 13 nM | 6 of 6 | 0 of 18 | GFTLESYGIS | VIYSDGRRTFYGDSVK | GQTAGTFDS |
| 9 | 1.3 nM | 6 of 6 | 0 of 18 | GFDLNEYGIS | VIYADGMRTFYADSVK | GQTAGTFDV |
| 10 | 220 pM | 6 of 6 | 0 of 18 | GFDLNEYGIS | VIYADGMRTAYADSVK | GDVAGTFDV |
| 11 | 1.0 nM | 6 of 6 | 3 of 18 | GFTLDEYGIS | VIYADGKRTFYADSVK | GEAAGTFDI |
| 12 | 190 pM | 6 of 6 | 1 of 18 | GFDLNEYGIS | VIYADGRRTFYTDSVK | GGNAGTFDI |
| 13 | nd | 0 of 6 | 0 of 18 | GFTLNSYGIS | VIYSDGRRTFYGDSVK | GRAQGTFDM |
| 14 | 740 pM | 6 of 6 | 0 of 18 | GFDLNEYGIS | VIYADGMRTAYQDSVK | GNNAGTFDI |
| 15 | 330 pM | 6 of 6 | 0 of 18 | GFDLNEYGIS | VIYADGVRTAYADNVK | GEVAGTFDT |
| 16 | nd | 0 of 6 | 0 of 18 | GFTLDSYGIS | VIYSDGRRTFNGLSVK | GRAAGTALS |
| 17 | nd | 0 of 6 | 0 of 18 | GFVLNQYGIS | VIYSDGRRTFYGDSVK | HRDAGTFDS |
| 18 | 160 nM | 1 of 6 | 0 of 18 | GETLESYGIS | VIYSDGRRTFYIDNVK | GRAAGTFDS |
| 19 | nd | 0 of 6 | 0 of 18 | GFDLEEYGIS | VIYADGRRTQYTANVK | GGKSGDFFM |
| 20 | nd | 0 of 6 | 0 of 18 | GFDIEKYGIS | VIYADGQRVSYDSSVK | GENAGNFMD |
| 21 | 3.8 nM | 5 of 6 | 0 of 18 | GFDLNEYGIS | VIYADGMRTFYADSVK | GNVAGTFDI |
| 22 | 16 nM | 6 of 6 | 0 of 18 | GFTLNDYGIS | VIYSDGRRTWYHDSVK | GRAAGTFDS |
| 23 | 920 pM | 6 of 6 | 0 of 18 | GFDLNEYGIS | VIYADGVRTSYADSVK | GNVAGTFDQ |
| 24 | 1.2 nM | 6 of 6 | 4 of 18 | GFDLNEYGIS | VIYADGRRTAYADSVK | GQVAGTFDN |
| 25 | nd | 0 of 6 | 0 of 18 | GFTLNSYGIS | VIYSDGRRTFYGDSVK | GVAAGTFLS |
| 26 | 1.2 nM | 6 of 6 | 0 of 18 | GFELNSYGIS | VIYSDGRRTFYADDVK | GRTAGTFDS |
| 27 | 850 pM | 6 of 6 | 0 of 18 | GFDLNEYGIS | VIYADGMRTFYIDSVK | GENAGTFDM |
| 28 | 4.3 nM | 6 of 6 | 0 of 18 | GFELNDYGIS | VIYSDGRRTFYGDAVK | GKTAGTFDS |
| 29 | 460 pM | 6 of 6 | 1 of 18 | GFTLNSYGIS | VIYSDGRRTFYSDSVK | ARAAGTFVS |
| 30 | 12 nM | 6 of 6 | 0 of 18 | GFGMEEYGIS | VIYADGQRNAYADEVK | GENAGTFDI |
| 31 | 1.0 nM | 6 of 6 | 0 of 18 | GFDLNEYGIS | VIYADGRRTFYTDNVK | GQNAGTFDS |
| 32 | 12 nM | 6 of 6 | 0 of 18 | GFTLNEYGIS | VIYSDGRRYFYTDSVK | GRFAGTFDS |
| 33 | 770 pM | 6 of 6 | 1 of 18 | GFDLDEYGIS | VIYADGMRTAYADSVK | GNVAGTFTL |
| 34 | nd | 0 of 6 | 0 of 18 | GFTLNSYGIS | SIYSDGRRTGYGDSVK | GRAAGTFDS |
| 35 | 890 pM | 6 of 6 | 0 of 18 | GFDLDSYGIS | VIYADGRRTFYGDSVK | GRAAGTFES |
| 36 | 19 nM | 3 of 6 | 0 of 18 | GFTLNEYGIS | VIYSDGRRTFYRDSVK | GRHAGTFDS |
| 37 | 82 nM | 6 of 12 | 0 of 36 | GFTLNSYGIS | VIYADGRRTFYGDSVK | GRAAGTYDS |
| 38 | 360 pM | 6 of 6 | 0 of 18 | GFDLNEYGIS | VIYADGMRTAYADSVK | GELAGTFDV |
| 39 | 8.0 nM | 6 of 6 | 0 of 18 | GFNLNEYGIS | VIYADGRRTFYADSVK | GEEAGTFDV |
| 40 | 740 pM | 6 of 6 | 1 of 18 | GFDLNEYGIS | VIYADGKRTYYADSVK | GENAGTFDQ |
| 41 | nd | 0 of 6 | 0 of 18 | GFDLDEYGIS | VIYADGRRTAYADSVK | GNEAGTFDI |
| 42 | 170 pM | 6 of 6 | 0 of 18 | GFDLNEYGIS | VIYADGRRTFYADSVK | GQIAGTFSV |
| 43 | nd | 0 of 6 | 0 of 18 | GFTLNDYGIS | VIYSDGRRTFYGDSVK | GREAGTFIS |
| 44 | 23 nM | 2 of 6 | 0 of 18 | KFNLNSYGIS | VIYSDGRRTFYGDSVK | GRTAGTFDS |
| 45 | nd | 0 of 6 | 0 of 18 | GFELSEYGIS | VIYADGVRVEYTQSVK | GQLGGSFNV |
| 46 | 850 pM | 6 of 6 | 1 of 18 | GFDLNEYGIS | VIYADGRRTAYIDSVK | GEIAGTFDS |
| 47 | 29 nM | 3 of 6 | 0 of 18 | GFELNDYGIS | VIYSDGRRTFYIDSVK | GRLAGTFDS |
| 48 | nd | 0 of 6 | 0 of 18 | GFDLNEYGIS | VIYMDGRRTFYSDSVK | GNIAGTFDS |
| 49 | nd | 0 of 6 | 0 of 18 | GFTLNEYGIS | VIYSDGRRTFYGDSVK | GRNAITFDL |
| 50 | 450 pM | 6 of 6 | 0 of 18 | GFDLNEYGIS | VIYADGVRTSYADSVK | GNVAGTFDT |
| 51 | nd | 0 of 6 | 1 of 18 | GFTLNSYGIS | VIYSDGRRTFYQDSVK | GRAADTFDS |
| 52 | 280 pM | 6 of 6 | 0 of 18 | GFDINEYGIS | VIYADGRRTFYADSVK | GNTAGTFDS |
| 53 | 2.5 nM | 6 of 6 | 0 of 18 | GFDLNEYGIS | VIYADGSRTAYSDSVK | GNTAGTFDV |
| 54 | 400 pM | 6 of 6 | 0 of 18 | GFDLNEYGIS | VIYADGLRTAYADSVK | GEVAGTFDI |
| 55 | 730 pM | 6 of 6 | 0 of 18 | GFDLDEYGIS | VIYADGKRTFYADSVK | GEAAGTFDS |
| 56 | 11 nM | 6 of 6 | 0 of 18 | SFNLNSYGIS | VIYSDGRRTFYADSVK | GKTAGTFDS |
| 57 | 3.1 nM | 6 of 6 | 1 of 18 | GFDLNSYGIS | VIYSDGRRTAYGDHVK | GRTAGTFDS |
| 58 | 77 nM | 3 of 6 | 1 of 18 | GFTLNSYGIS | VIYSDGRRNFYTDSVK | GRLAGTFDS |
| 59 | 2.7 nM | 6 of 6 | 0 of 18 | GFELNEYGIS | VIYSDGRRTFYGDSVK | GNAAGTFDK |
| 60 | 380 pM | 6 of 6 | 0 of 18 | GFDLNEYGIS | VIYADGMRTFYADDVK | GQVAGTFDV |
| 61 | 16 nM | 5 of 6 | 0 of 18 | GFTLLEYGIS | VIYSDGVRTFYGDSVK | GRAAGTFCS |
| 62 | 1.0 nM | 6 of 6 | 0 of 18 | GFDLNEYGIS | VIYADGVRTSYADSVK | GEVAGTFDV |
| 63 | 180 pM | 6 of 6 | 0 of 18 | GFDLNEYGIS | VIYADGVRTAYADSVK | GGTAGTFDV |
| 64 | nd | 0 of 6 | 0 of 18 | GEDLDEYGIS | VIYADGRRVVYQDQVK | GELSGVFAQ |
| 65 | 1.9 nM | 6 of 6 | 1 of 18 | GFDLNSYGIS | VIYSDGRRTFYKDSVK | GEAAGTFDS |
| 66 | 750 pM | 6 of 6 | 0 of 18 | GFDLDEYGIS | VIYADGRRTAYADDVK | GEVAGTFDT |

The closing 10 entries, repeated:

| CDR-H1 | CDR-H2 | CDR-H3 | apparent Kd | seen in | signal with controls |
|---|---|---|---|---|---|
| GFDLNSYGIS | VIYSDGRRTAYGDHVK | GRTAGTFDS | 3.1 nM | 6 of 6 | 1 of 18 |
| GFTLNSYGIS | VIYSDGRRNFYTDSVK | GRLAGTFDS | 77 nM | 3 of 6 | 1 of 18 |
| GFELNEYGIS | VIYSDGRRTFYGDSVK | GNAAGTFDK | 2.7 nM | 6 of 6 | 0 of 18 |
| GFDLNEYGIS | VIYADGMRTFYADDVK | GQVAGTFDV | 380 pM | 6 of 6 | 0 of 18 |
| GFTLLEYGIS | VIYSDGVRTFYGDSVK | GRAAGTFCS | 16 nM | 5 of 6 | 0 of 18 |
| GFDLNEYGIS | VIYADGVRTSYADSVK | GEVAGTFDV | 1.0 nM | 6 of 6 | 0 of 18 |
| GFDLNEYGIS | VIYADGVRTAYADSVK | GGTAGTFDV | 180 pM | 6 of 6 | 0 of 18 |
| GEDLDEYGIS | VIYADGRRVVYQDQVK | GELSGVFAQ | nd | 0 of 6 | 0 of 18 |
| GFDLNSYGIS | VIYSDGRRTFYKDSVK | GEAAGTFDS | 1.9 nM | 6 of 6 | 1 of 18 |
| GFDLDEYGIS | VIYADGRRTAYADDVK | GEVAGTFDT | 750 pM | 6 of 6 | 0 of 18 |

The authors' rule: three or more of the six replicates give a measured affinity, fewer mean a poor binder. A sequence that the file lists under several names has all its replicates pooled. The parent sequence was in this pool as ten entries: three were never detected, three once, and four in most replicates, with averages from 2.2 nM to 240 nM. Empty control strains, which show no peptide, gave a signal in 1% of pairings with all heavy chain designs; the median was 120 nM and 95% of these signals were weaker than 7.0 nM. No background was subtracted. Also given: how often the same scFv was detected with the empty control strains.

Reference: Li et al. 2023, doi:10.1038/s41467-023-39022-2. File: FLAb, binding data.